Source: PubChem BioAssay AID602274 (Sanford-Burnham Center for Chemical Genomics, 2012)
This is a selection; strong and weak results do not stand in their true shares. Active and inactive are the calls of the source. No stated cut-off is given here; in the data, active means survival enhancement above about 18%; inactive means the rest.

test: compounds raising survival of dissociated human iPSCs – cell-based, ATPlite luminescence, primary screen (AID 602274); details: hiPSC single-cell survival, at 20 µM, stronger effect = higher value, 100% = ROCK inhibitor wells, 0% = DMSO;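 further: cells exposed to compounds for 16 hours before the ATP read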

| SMILES | survival enhancement |
| --- | --- |
| CCC(=O)N(c1ccccc1)C1(COC)CCN(CCn2nnn(CC)c2=O)CC1 | inactive: 0.9% |
| CCC(=O)N(c1ccccc1)C1(COC)CCN(CCc2cccs2)CC1 | inactive: -2.8% |
| CCC(=O)N(c1ccccc1)C1CCN(CCc2ccccc2)CC1 | inactive: 0.5% |
